Source: patent US10968193B2, “Antidiabetic bicyclic compounds” (Merck Sharp & Dohme Corp., priority 2014, dated 2021)

By UniProt entry, the sequences of proteins in these tests, tags left out.
UniProt O14842, whole entry: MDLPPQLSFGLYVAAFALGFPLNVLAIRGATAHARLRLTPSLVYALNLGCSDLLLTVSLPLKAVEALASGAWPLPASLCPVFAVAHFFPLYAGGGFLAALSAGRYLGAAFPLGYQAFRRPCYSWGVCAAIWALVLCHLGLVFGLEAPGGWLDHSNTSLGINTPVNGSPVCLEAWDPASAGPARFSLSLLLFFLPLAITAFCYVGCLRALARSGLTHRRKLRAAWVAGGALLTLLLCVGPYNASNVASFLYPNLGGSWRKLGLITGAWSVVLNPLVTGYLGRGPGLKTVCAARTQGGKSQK

Biological target: human GPR40 (Homo sapiens, UniProt O14842)
Test: Inositol Phosphate Turnover (IP1) Assay 3
Details: read-out: Inositol Phosphate Turnover Assay 3, EC50, HEK cells stably expressing human GPR40, tested form: Na salt
Protocol: Human and mouse GPR40 stable cell-lines were generated in CHO cells stably expressing NFAT BLA (Beta-lactamase). A human GPR40 stable cell-line was generated in HEK cells stably expressing the aequorin expressing reporter. The expression plasmids were transfected using lipofectamine (Life Technologies) following manufacturer's instructions. Stable cell-lines were generated following drug selection.
Inositol Phosphate Turnover (IP1) Assay 3:
The assay was performed in 384-well format. HEK cells stably expressing human GPR40 were plated at 7500 cells per well in growth medium (DMEM/10% fetal calf serum). Cell plates were then incubated 16 hours at 37 degrees in a 5% CO2 incubator.
Measurement of Inositol Phosphate Turnover (IP) was performed using the CisBio IP-One kit (Part number 62IPAPEB). After the 16 hour incubation, the growth media was removed by centrifugation using the BlueWasher (AusWasher GUI Ver. v1.0.1.8) Protocol #21—“Light Dry” and 10 ul of stimulation buffer (prepared as described in the kit) was added to each well. […] The plates were then read in a Perkin Elmer EnVision or equivalent reader able to measure FRET. […] Data is normalized to % activity using a reference compound and EC50s determined using a standard 4-parameter fit.

COc1cc(-c2ccc([C@@H]3CCc4ccc([C@H](C5CC5)[C@H](C)C(=O)O)cc4O3)cc2CN(C)C2CCOC2)c(F)cn1 (single isomer, unassigned)
EC50: 0.5 nM
